The text below walks through data of patent US10800772B2 (Gilead Sciences, Inc., priority 2016, dated 2020).

A short description of the data set: Hum MS stability (human microsomal stability half-life).

Structures are written as SMILES.

With `Cc1cc2nc(-c3ccc4c(c3)c(C3CN(C)C3)nn4C)sc2c(-c2ccc(Cl)cc2)c1[C@H](OC(C)(C)C)C(=O)O` [Compound 57, (S)-2-(tert-butoxy)-2-(7-(4-chlorophenyl)-5-methyl-2-(1-methyl-3-(1-methylazetidin-3-yl)-1H-indazol-5-yl)benzo[d]thiazol-6-yl)acetic acid], the “Hum MS stability t½” value is 6.58 h.

Regarding `CC(=O)N1CC(N2CCC(c3nn(C)c4ccc(-c5nc6cc(C)c([C@H](OC(C)(C)C)C(=O)O)c(-c7ccc(Cl)cc7)c6s5)cc34)CC2)C1` [Compound 30, (S)-2-(2-(3-(1-(1-acetylazetidin-3-yl)piperidin-4-yl)-1-methyl-1H-indazol-5-yl)-7-(4-chlorophenyl)-5-methylbenzo[d]thiazol-6-yl)-2-(tert-butoxy)acetic acid], the “Hum MS stability t½” value was 6.58 h.

Take `Cc1cc2nc(-c3ccc4c(c3)c(N3CCCN(C)CC3)nn4C)sc2c(-c2ccc(Cl)cc2)c1[C@H](OC(C)(C)C)C(=O)O` [Compound 132, (S)-2-(tert-butoxy)-2-(7-(4-chloro-phenyl)-5-methyl-2-(1-methyl-3-(4-methyl-1,4-diazepan-1-yl)-1H-indazol-5-yl)benzo[d]thiazol-6-yl)acetic acid]: the “Hum MS stability t½” value came to 6.58 h.

For the compound `CC(=O)N1CC[C@H](N2CCC(c3nn(C)c4ccc(-c5nc6cc(C)c([C@H](OC(C)(C)C)C(=O)O)c(-c7ccc(Cl)cc7)c6s5)cc34)CC2)C1` [Compound 11, (S)-2-(2-(3-(1-((S)-1-acetylpyrrolidin-3-yl)piperidin-4-yl)-1-methyl-1H-indazol-5-yl)-7-(4-chlorophenyl)-5-methylbenzo[d]thiazol-6-yl)-2-(tert-butoxy)acetic Acid], the “Hum MS stability t½” value stood at 6.58 h.

Consider `Cc1cc2nc(-c3ccc4c(n3)c(N3CCN(C)CC3)nn4C)sc2c(-c2ccc(Cl)cc2)c1[C@H](OC(C)(C)C)C(=O)O` [Compound 196, (S)-2-(tert-butoxy)-2-(7-(4-chloro-phenyl)-5-methyl-2-(1-methyl-3-(4-methylpiperazin-1-yl)-1H-pyrazolo [4,3-b]pyridin-5-yl)benzo[d]thiazol-6-yl)acetic acid], for which the “Hum MS stability t½” value turned out to be 6.58 h.

Turning to `Cc1cc2nc(-c3ccc4c(c3)c(N3CCN(C5COC5)CC3)nn4C)sc2c(-c2ccc(Cl)cc2)c1[C@H](OC(C)(C)C)C(=O)O` [Compound 104, (S)-2-(tert-butoxy)-2-(7-(4-chlorophenyl)-5-methyl-2-(1-methyl-3-(4-(oxetan-3-yl)piperazin-1-yl)-1H-indazol-5-yl)benzo[d]thiazol-6-yl)acetic acid], the “Hum MS stability t½” value worked out at 6.58 h.

`COC(=O)N1CCC(c2nn(C)c3ccc(-c4nc5cc(C)c([C@H](OC(C)(C)C)C(=O)O)c(-c6ccc(Cl)cc6)c5s4)cc23)C1` (stereo partly drawn) [Compound 72, (2S)-2-(tert-butoxy)-2-(7-(4-chlorophenyl)-2-(3-(1-(methoxycarbonyl)pyrrolidin-3-yl)-1-methyl-1H-indazol-5-yl)-5-methylbenzo[d]thiazol-6-yl)acetic acid]: the “Hum MS stability t½” value was determined as 6.58 h.

For `CC(=O)N1CC[C@@H](N2CCC(c3nn(C)c4ccc(-c5nc6cc(C)c([C@H](OC(C)(C)C)C(=O)O)c(-c7ccc(Cl)cc7)c6s5)cc34)CC2)C1` [Compound 12, (S)-2-(2-(3-(1-((R)-1-acetylpyrrolidin-3-yl)piperidin-4-yl)-1-methyl-1H-indazol-5-yl)-7-(4-chlorophenyl)-5-methylbenzo[d]thiazol-6-yl)-2-(tert-butoxy)acetic Acid], the “Hum MS stability t½” value was 6.58 h.

As for `COCCN1CCN(c2nn(C)c3ccc(-c4nc5cc(C)c([C@H](OC(C)(C)C)C(=O)O)c(-c6ccc(Cl)cc6)c5s4)cc23)C1=O` [Compound 79, (S)-2-(tert-butoxy)-2-(7-(4-chlorophenyl)-2-(3-(3-(2-methoxyethyl)-2-oxoimidazolidin-1-yl)-1-methyl-1H-indazol-5-yl)-5-methylbenzo[d]thiazol-6-yl)acetic acid], the “Hum MS stability t½” value is 6.58 h.

For `Cc1cc2nc(-c3ccc4c(c3)c(C3CCN(C)C3)nn4C)sc2c(-c2ccc(Cl)cc2)c1[C@H](OC(C)(C)C)C(=O)O` (stereo partly drawn) [Compound 63, (2S)-2-(tert-butoxy)-2-(7-(4-chlorophenyl)-5-methyl-2-(1-methyl-3-(1-methylpyrrolidin-3-yl)-1H-indazol-5-yl)benzo[d]thiazol-6-yl)acetic acid], the “Hum MS stability t½” value turned out to be 6.58 h.

With `COC(=O)N1CC(N2CCC(c3nn(C)c4ccc(-c5nc6cc(C)c([C@H](OC(C)(C)C)C(=O)O)c(-c7ccc(Cl)cc7)c6s5)nc34)CC2)C1` [Compound 167, (S)-2-(tert-butoxy)-2-(7-(4-chloro-phenyl)-2-(3-(1-(1-(methoxycarbonyl)azetidin-3-yl)piperidin-4-yl)-1-methyl-1H-pyrazolo[4,3-b]pyridin-5-yl)-5-methylbenzo[d]thiazol-6-yl) acetic acid], the “Hum MS stability t½” value stood at 6.58 h.

Take `Cc1cc2nc(-c3ccc4c(c3)c(N3CCN(C)CC3=O)nn4C)sc2c(-c2ccc(Cl)cc2)c1[C@H](OC(C)(C)C)C(=O)O` [Compound 87, (S)-2-(tert-butoxy)-2-(7-(4-chlorophenyl)-5-methyl-2-(1-methyl-3-(4-methyl-2-oxopiperazin-1-yl)-1H-indazol-5-yl)benzo[d]thiazol-6-yl)acetic acid]: the “Hum MS stability t½” value is 6.58 h.

Consider `COCCN1CC[C@H](c2nn(C)c3ccc(-c4nc5cc(C)c([C@H](OC(C)(C)C)C(=O)O)c(-c6ccc(Cl)cc6)c5s4)cc23)C1` (single isomer, unassigned) [Compound 68], for which the “Hum MS stability t½” value was 6.58 h.

On to `CCN1CCN(c2nn(C)c3ccc(-c4nc5cc(C)c([C@H](OC(C)(C)C)C(=O)O)c(-c6ccc(Cl)cc6)c5s4)cc23)C1=O` [Compound 82, (S)-2-(tert-butoxy)-2-(7-(4-chlorophenyl)-2-(3-(3-ethyl-2-oxoimidazolidin-1-yl)-1-methyl-1H-indazol-5-yl)-5-methylbenzo[d]thiazol-6-yl)acetic acid], for which the “Hum MS stability t½” value was 6.58 h.

For `Cc1cc2nc(-c3ccc4c(c3)c(N3CC(N5CCOCC5)C3)nn4C)sc2c(-c2ccc(Cl)cc2)c1[C@H](OC(C)(C)C)C(=O)O` [Compound 88, (S)-2-(tert-butoxy)-2-(7-(4-chlorophenyl)-5-methyl-2-(1-methyl-3-(3-morpholinoazetidin-1-yl)-1H-indazol-5-yl)benzo[d]thiazol-6-yl)acetic acid], the “Hum MS stability t½” value came out at 6.58 h.

With `Cc1cc2nc(-c3ccc4c(n3)c(C3CCN(C5CN(C(=O)OC(C)C)C5)CC3)nn4C)sc2c(-c2ccc(Cl)cc2)c1[C@H](OC(C)(C)C)C(=O)O` [Compound 168, (S)-2-(tert-butoxy)-2-(7-(4-chloro-phenyl)-2-(3-(1-(1-(isopropoxy-carbonyl)azetidin-3-yl)piperidin-4-yl)-1-methyl-1H-pyrazolo[4,3-b]pyridin-5-yl)-5-methylbenzo[d]thiazol-6-yl) acetic acid], the “Hum MS stability t½” value is 6.58 h.

With `Cc1cc2nc(-c3ccc4c(c3)c(C3CCN(CC5CCO5)CC3)nn4C)sc2c(-c2ccc(Cl)cc2)c1[C@H](OC(C)(C)C)C(=O)O` (stereo partly drawn) [Compound 6, (2S)-2-(tert-butoxy)-2-(7-(4-chlorophenyl)-5-methyl-2-(1-methyl-3-(1-(oxetan-2-ylmethyl)piperidin-4-yl)-1H-indazol-5-yl)benzo[d]thiazol-6-yl)acetic Acid], the “Hum MS stability t½” value worked out at 6.58 h.
